Experiment [1] addresses purified human Factor XIa (Homo sapiens, UniProt P03951). Briefly: Factor XIa Assay. The settings on record: read-out: F11a IC50, fluorogenic substrate Z-Gly-Pro-Arg-AFC 100 μM, 40 pM enzyme, pH 7.4. The format is biochemical.
For experiment [2], the target named is purified Human plasma kallikrein (Homo sapiens, UniProt P03952). As to the kind of experiment: Kallikrein Assay. The following applies: read-out: PK IC50; Plasma Kallekrein IC50; fluorogenic substrate Acetyl-K-P-R-AFC, 0.5 nM enzyme, pH 7.4.

Amino acid sequences for entries named in this document (tags omitted). Residues count along the entry.
UniProt P03951, 388-625 limits assumed: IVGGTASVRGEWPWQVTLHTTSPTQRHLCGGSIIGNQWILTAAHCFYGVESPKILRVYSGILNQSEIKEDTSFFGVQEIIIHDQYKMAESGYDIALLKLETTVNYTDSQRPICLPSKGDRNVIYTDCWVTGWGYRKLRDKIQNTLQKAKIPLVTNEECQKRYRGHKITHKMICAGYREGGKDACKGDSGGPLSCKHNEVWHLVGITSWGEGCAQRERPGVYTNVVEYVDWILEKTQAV
UniProt P03951, 19-387 partner limits assumed: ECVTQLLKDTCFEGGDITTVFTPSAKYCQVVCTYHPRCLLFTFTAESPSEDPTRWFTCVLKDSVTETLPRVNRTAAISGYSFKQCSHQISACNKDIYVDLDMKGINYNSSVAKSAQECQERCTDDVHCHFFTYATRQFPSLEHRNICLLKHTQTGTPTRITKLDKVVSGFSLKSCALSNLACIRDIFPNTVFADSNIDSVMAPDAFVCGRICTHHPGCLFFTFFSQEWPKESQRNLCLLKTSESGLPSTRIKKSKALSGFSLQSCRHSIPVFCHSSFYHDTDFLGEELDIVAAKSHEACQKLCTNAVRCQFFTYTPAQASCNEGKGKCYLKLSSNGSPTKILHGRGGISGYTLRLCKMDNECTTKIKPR
UniProt P03952, 391-638 limits assumed: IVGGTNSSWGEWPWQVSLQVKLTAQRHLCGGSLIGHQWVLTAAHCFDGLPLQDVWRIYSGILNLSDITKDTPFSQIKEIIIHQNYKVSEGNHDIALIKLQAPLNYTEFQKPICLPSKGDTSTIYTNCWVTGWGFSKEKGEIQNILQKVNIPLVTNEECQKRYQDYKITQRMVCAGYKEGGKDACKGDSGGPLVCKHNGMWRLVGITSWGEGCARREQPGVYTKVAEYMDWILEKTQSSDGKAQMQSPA
UniProt P03952, 20-390 partner limits assumed: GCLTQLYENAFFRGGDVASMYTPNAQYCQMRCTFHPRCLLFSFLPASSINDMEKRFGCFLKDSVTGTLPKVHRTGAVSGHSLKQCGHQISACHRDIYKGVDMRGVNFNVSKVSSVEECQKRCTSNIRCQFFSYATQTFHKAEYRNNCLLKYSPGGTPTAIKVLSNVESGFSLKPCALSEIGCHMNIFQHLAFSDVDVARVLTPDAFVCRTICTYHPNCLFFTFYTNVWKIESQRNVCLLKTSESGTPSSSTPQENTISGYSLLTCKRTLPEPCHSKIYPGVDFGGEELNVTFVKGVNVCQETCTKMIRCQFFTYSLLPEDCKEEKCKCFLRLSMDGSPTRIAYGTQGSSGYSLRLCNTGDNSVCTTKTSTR

The IC50 is the midpoint of a concentration-inhibition curve. Regarding `COC(=O)Nc1ccc(-c2ccnc(C(Cc3ccccc3)c3ccc(-c4cc(Cl)ccc4-n4cnnn4)c[n+]3[O-])c2)cc1` (single isomer, unassigned) [Example 82], in experiment [1], the IC50 came to 125 nM.

As for `COC(=O)Nc1ccc(-c2ccnc(C(Cc3ccccc3)c3ccc(-c4cc(Cl)ccc4-n4cnnn4)c[n+]3[O-])c2)cc1` (single isomer, unassigned) [Example 81], the IC50 in experiment [1] was 1270 nM. For the molecule `COC(=O)c1scc(-c2c[nH]c(C(Cc3ccccc3)c3ccc(-c4cc(Cl)ccc4-n4cnnc4)c[n+]3[O-])n2)c1F` (racemic), the IC50 in experiment [2] was 57.2 nM; in experiment [1] it was 8.25 nM.

The values above are taken from patent publication US9868727B2, “Factor XIa inhibitors” (Merck Sharp & Dohme Corp., priority 2014, dated 2018).
